Tests used:
Adenosine receptor A2a = Adenosine receptor A2a (Homo sapiens, UniProt P29274); assay: biochemical
Adenosine receptor A1 = Adenosine receptor A1 (Homo sapiens, UniProt P30542); assay: Displacement of [3H]CCPA from human A1 receptor expressed in CHO cell membranes after 60 mins by gamma counting method; format: cell-based
[1] = molecular target: T1, Peroxisome proliferator-activated receptor delta (Homo sapiens, UniProt Q03181); assay: Displacement of Fluormone-Pan-PPAR Green from human GST-tagged PPARdelta LBD by TR-FRET assay
T1 sequence (Q03181 whole entry): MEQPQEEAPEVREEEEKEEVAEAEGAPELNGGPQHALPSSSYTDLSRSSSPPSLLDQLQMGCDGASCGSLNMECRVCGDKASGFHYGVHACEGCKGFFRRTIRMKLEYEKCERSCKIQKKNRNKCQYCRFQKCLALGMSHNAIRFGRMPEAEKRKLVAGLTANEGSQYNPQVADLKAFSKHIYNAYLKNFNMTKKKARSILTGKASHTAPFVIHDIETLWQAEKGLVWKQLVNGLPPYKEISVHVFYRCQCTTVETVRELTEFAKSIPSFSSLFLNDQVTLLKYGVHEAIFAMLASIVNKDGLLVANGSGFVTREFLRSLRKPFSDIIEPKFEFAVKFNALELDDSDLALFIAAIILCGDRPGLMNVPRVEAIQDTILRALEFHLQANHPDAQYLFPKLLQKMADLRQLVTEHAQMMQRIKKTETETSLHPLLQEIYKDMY

Amino acid sequences for entries named in this document (tags omitted).
UniProt P30542, whole entry: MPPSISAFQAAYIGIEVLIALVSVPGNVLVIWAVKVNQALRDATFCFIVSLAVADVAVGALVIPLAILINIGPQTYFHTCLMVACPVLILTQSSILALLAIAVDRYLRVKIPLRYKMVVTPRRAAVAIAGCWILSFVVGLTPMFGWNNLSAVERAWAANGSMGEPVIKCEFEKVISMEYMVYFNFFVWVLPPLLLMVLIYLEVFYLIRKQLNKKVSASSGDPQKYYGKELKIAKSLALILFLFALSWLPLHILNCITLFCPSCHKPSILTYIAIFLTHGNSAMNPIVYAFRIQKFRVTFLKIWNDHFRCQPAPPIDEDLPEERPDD

Row | Ki (Adenosine receptor A2a) [nM] | Ki (Adenosine receptor A1) [nM] | Ki [1] [nM] | SMILES
1 | 440 | 860 | – | O[C@@H]1[C@H](O)CS[C@H]1n1cnc2c(NCc3cccc(I)c3)ncnc21
2 | – | – | 10.2 | O[C@@H]1[C@H](O)CS[C@H]1n1cnc2c(NCc3cccc(Cl)c3)nc(Cl)nc21

From ChEMBL document CHEMBL4017496 (J Med Chem, 2017)
